This is an account of results in PubChem BioAssay AID588436 (Broad Institute, 2011).

Only a part is listed here, and it is no random draw. Some structures show a salt or complex split into parts, the way the source records it. Activity calls are given as the source filed them. Cut-off read from the data, not from the text of the source: active = activation mostly above about 9.7% (no sharp cut-off); inconclusive = no clear call, values can overlap the other calls; inactive = mostly below about 3.7%.

This test in a line: induces V. cholerae light production without autoinducers, primary screen, BH1578 luxS cqsA deficient, single point (AID 588436). As to conditions: V. cholerae BH1578 lux reporter, luminescence, 6 h, at 18.7 µM; active compounds read high.
For `Cc1ccc(C)c(NP(C)(=O)Oc2ccccc2)c1` (centres undefined), the activation is inactive: -1.4%.
`CP(=O)(Nc1cccc(Br)c1)Oc1ccccc1` (centres undefined): the activation entry was “inactive”.
For `Cc1cc(C)cc(OP(C)(=O)Nc2ccccn2)c1` (centres undefined), the activation was inactive: 1.54%.
The figure for `CCOC(=O)c1ccc(NP(C)(=O)Oc2cc(C)cc(C)c2)cc1` (centres undefined) is inactive: -0.392%; for `Cc1cc(C)cc(OP(C)(=O)Nc2ccc(C)cc2C)c1` (centres undefined) it is “inactive”.
The figure for `COc1ccccc1OP(C)(=O)Nc1cccc(Br)c1` (centres undefined) is inactive: -0.597%; for `CC1=NCCc2c1[nH]c1ccccc21.O=[N+]([O-])c1cc([N+](=O)[O-])c(O)c([N+](=O)[O-])c1` it is inactive: -0.252%.
For `O=C(O)c1cccc(Nc2c([N+](=O)[O-])cc([N+](=O)[O-])cc2[N+](=O)[O-])c1`, the activation entry was “inactive”.
With `CP(=O)(Nc1ccc(SC(F)(F)F)cc1)Oc1ccccc1` (centres undefined) the figure was inactive: -0.601%; with `CCCOc1ccc(NP(C)(=O)Oc2ccc(Cl)cc2)cc1` (centres undefined), inactive: -0.855%; with `CN1CCCCC1COC(=O)C1(O)c2ccccc2CCc2ccccc21` (centres undefined), inactive: -0.226%.
The entry for `COc1ccccc1OP(C)(=O)Nc1c(C)cccc1C` (centres undefined) is “inactive”; for `CCOC(=O)C(CC)C1=NC(C)(C)Cc2ccccc21.O=[N+]([O-])c1cc([N+](=O)[O-])c(O)c([N+](=O)[O-])c1` (centres undefined) it is “inactive”; for `O=[N+]([O-])c1cc([N+](=O)[O-])c(Nc2nnnn2CCO)c([N+](=O)[O-])c1` it is inactive: -0.466%.
For `CC1=C2N=C(C=C3N=C(C(C)=C4[N-][C@@](C)([C@@H]5N=C1[C@](C)(CCC(=O)NC[C@@H](C)OP(=O)([O-])O[C@H]1[C@@H](O)[C@@H](n6cnc7cc(C)c(C)cc76)O[C@@H]1CO)[C@H]5CC(N)=O)[C@@](C)(CC(N)=O)[C@@H]4CCC(N)=O)[C@@](C)(CC(N)=O)[C@@H]3CCC(N)=O)C(C)(C)[C@@H]2CCC(N)=O.[C-]#N.[Co+3]`, the activation is inactive: -0.473%.
With `Cc1nc2ccc3ccccc3c2s1.O=[N+]([O-])c1cc([N+](=O)[O-])c(O)c([N+](=O)[O-])c1` the figure was inactive: -5.88%; with `O=[N+]([O-])c1cc([N+](=O)[O-])c(-c2cnn(-c3ccccc3)c2)c([N+](=O)[O-])c1`, inactive: -0.747%.
Regarding `O=[N+]([O-])c1cc([N+](=O)[O-])c(-n2nnc3ccccc32)c([N+](=O)[O-])c1`, the activation entry was “inactive”.
Consider `CP(=O)(Nc1ccccn1)Oc1ccc(Cl)cc1` (centres undefined), for which the activation was inactive: -1.51%.
With `O=[N+]([O-])c1cc([N+](=O)[O-])c(O)c([N+](=O)[O-])c1.c1ccc(Oc2ccncc2)cc1` the figure was inactive: -0.396%.
Take `CCOC(=O)c1ccc(NP(C)(=O)Oc2ccc(OC)cc2)cc1` (centres undefined): the activation is inactive: -0.468%.
As for `CCOP(C)(=S)SCC(=O)NC(C)C(=O)O` (centres undefined), the activation is inactive: -0.641%.
With `Cc1cc(C)cc(OP(C)(=O)Nc2ccc(SC(F)(F)F)cc2)c1` (centres undefined) the figure was inactive: 0.0425%.
`CCc1ccc(OP(C)(=O)N2CCN(c3ccc([N+](=O)[O-])cc3)CC2)cc1` (centres undefined): the activation result was “inactive”.
Turning to `CP(=O)(NC(=O)Nc1ccccc1)Oc1ccccc1` (centres undefined), the activation was inactive: 1.51%.
On to `CP(=O)(Oc1ccccc1)OC(c1ccccc1)C(F)(F)F` (centres undefined), for which the activation is inactive: -0.68%.
With `CP(=O)(Nc1ccc(SC(F)(F)F)cc1)Oc1ccc(Cl)cc1` (centres undefined) the entry was “inactive”.
Turning to `Cc1cccc(C)c1OP(C)(=O)Nc1ccc(SC(F)(F)F)cc1` (centres undefined), the activation was inactive: -1.23%.
As to `Cc1ccc(Nc2c([N+](=O)[O-])cc([N+](=O)[O-])cc2[N+](=O)[O-])cc1`, the activation was inactive: -7.58%.
The figure for `CP(=O)(Nc1ccccc1Br)Oc1ccccc1` (centres undefined) is inactive: -3.45%; for `COc1ccccc1OP(C)(=O)Nc1ccccc1` (centres undefined) it is inactive: -0.57%.
For `CP(=S)(Nn1cnnc1)Oc1ccccc1` (centres undefined), the activation was inactive: -1.16%.
As to `Cc1cc(C)cc(OP(C)(N)=O)c1` (centres undefined), the activation was inactive: -0.115%.
On to `COc1ccc(OP(C)(=O)Nc2cccc(F)c2)cc1` (centres undefined), for which the activation entry is “inactive”.
Consider `COc1ccccc1OP(C)(=O)Nc1cc(Cl)ccc1C` (centres undefined), for which the activation was inactive: -0.106%.
Turning to `Cc1ccc(NP(C)(=O)Oc2ccccc2)c(C)c1` (centres undefined), the activation result is “inactive”.
With `COc1ccccc1OP(C)(=O)Nc1ccc(C)cc1` (centres undefined), the activation is inactive: -2.41%.
For `CCOC(=O)c1ccc(NP(C)(=O)Oc2ccccc2)cc1` (centres undefined), the activation was inactive: -0.623%.
The entry for `O=[N+]([O-])c1ccc2c(c1)C=Nc1ccccc1O2` is “inactive”.
In the case of `Cc1cccc(C)c1OP(C)(N)=O` (centres undefined), the activation entry is “inactive”.
For `CC(C)(C)c1ccc(OP(C)(=O)Nc2ccc(SC(F)(F)F)cc2)cc1` (centres undefined), the activation was inactive: -0.347%.
The entry for `O=[N+]([O-])c1cc([N+](=O)[O-])c(Nc2cccnc2)c([N+](=O)[O-])c1` is “inactive”.
The figure for `CCN(CC)CCCOC(=O)C(O)(c1ccccc1)c1ccccc1` is inactive: 0.176%; for `COc1ccccc1OP(C)(=O)Nc1ccc(C)cc1C` (centres undefined) it is inactive: -1.61%; for `CP(=O)(Nc1ccccn1)Oc1ccccc1` (centres undefined) it is “inactive”.
With `CCc1ccc(OP(C)(=O)O)cc1` the figure was inactive: 2.44%; with `O=[N+]([O-])c1cc([N+](=O)[O-])c(Nc2ccccn2)c([N+](=O)[O-])c1`, inactive: -0.292%.
As for `Cc1c(NP(C)(=O)Oc2ccc(C(C)C)cc2)c(=O)n(-c2ccccc2)n1C` (centres undefined), the activation is inactive: -0.351%.
The entry for `COc1ccc(OP(C)(=O)Nc2ccccn2)cc1` (centres undefined) is “inactive”; for `CN(C)CCOC(=O)C(O)(c1ccccc1)C1CCCC1` (centres undefined) it is inactive: -0.582%; for `COc1ccccc1OP(C)(=O)Nc1ccc(Br)cc1` (centres undefined) it is inactive: -0.568%.
With `CP(=O)(OCCOc1ccccc1)OCCOc1ccccc1` the figure was inactive: -0.399%; with `CCCCCCCCCCCCCCCC1C[N+](C)(C)CCOP(C)(=O)O1` (centres undefined), inactive: -1.89%; with `CP(=O)(Nc1ccc(Cl)cc1Cl)Oc1ccccc1` (centres undefined), inactive: 0.285%.
With `COc1ccccc1OP(C)(=O)Nc1ccc(C)c(C)c1` (centres undefined) the figure was inactive: -0.752%; with `COc1ccc(OP(C)(=O)Nc2ccccc2Br)cc1` (centres undefined), “inactive”.
On to `Cc1cc(C)cc(OP(C)(=O)Nc2cccc(C(F)(F)F)c2)c1` (centres undefined), for which the activation result was “inactive”.
The entry for `O=C1C(O)=C([N+](=O)[O-])C(=O)C(O)=C1[N+](=O)[O-]` is “inactive”.
For the compound `CCOC(=O)c1ccc(NP(C)(=O)Oc2ccc(Cl)cc2)cc1` (centres undefined), the activation was inactive: -0.319%.
Regarding `CP(=O)(OC12CC3CC(CC(C3)C1)C2)OC12CC3CC(CC(C3)C1)C2`, the activation is inactive: -0.233%.
Consider `CN(C)C(=O)c1c([N+](=O)[O-])cc([N+](=O)[O-])cc1[N+](=O)[O-]`, for which the activation was inactive: -0.153%.
With `CC(C)(C)c1ccc(OP(C)(=O)O)cc1` the figure was inactive: -0.205%.
With `COc1ccccc1OP(C)(=O)Nc1ccccc1Br` (centres undefined) the entry was “inactive”; with `CP(=O)(Nc1ccc(Cl)cc1)Oc1ccc(F)cc1` (centres undefined), “inactive”.
Regarding `O=C(OCCCN1CCCC1)C(O)(c1ccccc1)C1CCCCC1` (centres undefined), the activation is inactive: -0.366%.
With `COc1ccccc1OP(C)(=O)Nc1c(C)n(C)n(-c2ccccc2)c1=O` (centres undefined) the figure was inactive: -1.28%; with `CCc1ccc(OP(C)(=O)Nc2cccnc2)cc1` (centres undefined), inactive: -3.33%.
With `CP(=O)(Oc1ccccc1)N1CCOC1=O` (centres undefined), the activation entry is “inactive”.
Regarding `COc1ccc(OP(C)(=O)Nc2ccc(Br)cc2)cc1` (centres undefined), the activation entry is “inactive”.
With `CCN(CC)CC(O)COC(=O)C(O)(c1ccccc1)C1CCCCC1` (centres undefined) the figure was inactive: -3.12%; with `Cc1ccccc1NP(C)(=O)Nc1ccccc1C`, inactive: -0.641%.
`CP(=O)(Nc1ccc2c(c1)OCCO2)Oc1ccccc1` (centres undefined): the activation entry was “inactive”.
With `CCOP(C)(=S)SCC(=O)NC(C)(CC)C(=O)O` (centres undefined) the figure was inactive: -2.86%; with `CP(=O)(Nc1ccc(SC(F)(F)F)cc1)Oc1ccc(F)cc1` (centres undefined), inactive: -0.53%.
On to `Cc1c(C(c2ccc3c(c2)OCO3)c2c(C)n(C)n(-c3ccccc3)c2=O)c(=O)n(-c2ccccc2)n1C.O=[N+]([O-])c1cc([N+](=O)[O-])c(O)c([N+](=O)[O-])c1`, for which the activation entry is “inactive”.
Turning to `O=[N+]([O-])c1ccc(OP2(=O)COCCO2)cc1` (centres undefined), the activation is inactive: -0.376%.
With `O=[N+]([O-])c1cc([N+](=O)[O-])c(NCC2CCS(=O)(=O)C2)c([N+](=O)[O-])c1` (centres undefined) the figure was inactive: -1.18%; with `Cc1cc(-c2cccc3ccccc23)c(C)cn1.O=[N+]([O-])c1cc([N+](=O)[O-])c(O)c([N+](=O)[O-])c1`, inactive: -0.256%; with `CN(C)CCOC(=O)C(O)(c1ccccc1)C1CCCCC1` (centres undefined), “inactive”.
Consider `COc1ccc(NP(C)(=O)Oc2ccccc2OC)cc1` (centres undefined), for which the activation is inactive: 0.396%.
For `COc1ccc(OP(C)(=O)Nc2cccc(Br)c2)cc1` (centres undefined), the activation was inactive: 0.406%.
For `CP(=O)(Nc1ccccc1)Oc1ccc(F)cc1` (centres undefined), the activation result is “inactive”.
The entry for `CCCCCOc1ccc(NP(C)(=O)Oc2ccc(Cl)cc2Cl)cc1` (centres undefined) is “inactive”; for `O=[N+]([O-])c1cc([N+](=O)[O-])c(OC2CCCCC2O)c([N+](=O)[O-])c1` (centres undefined) it is “inactive”.
With `Cc1c([N+](=O)[O-])cc([N+](=O)[O-])c(Br)c1[N+](=O)[O-]` the entry was “inactive”.
The figure for `CCN(CC)CCCOC(=O)C(O)(c1ccccc1)C1CCCCC1` (centres undefined) is inactive: -0.61%; for `CCOC(=O)c1ccc(NP(C)(=O)Oc2ccc(F)cc2)cc1` (centres undefined) it is inactive: -0.17%.
As for `COc1ccc(OP(C)(=O)Nc2ccc(SC(F)(F)F)cc2)cc1` (centres undefined), the activation is inactive: -1.56%.
Turning to `COc1ccc2c(c1O)-c1c(O)c(OC)cc3c1[C@H](C2)[N+](C)(C)CC3.O=[N+]([O-])c1cc([N+](=O)[O-])c([O-])c([N+](=O)[O-])c1[O-]`, the activation was inactive: 0.61%.
The figure for `O=C(OC1CN2CCC1CC2)c1ccc([N+](=O)[O-])cc1` (centres undefined) is inactive: -0.472%; for `O=C(OCCN1CCN(CCOCc2ccccc2)CC1)C(O)(c1ccccc1)c1ccccc1` it is inactive: -0.247%; for `CP(=O)(Nc1ccccc1F)Oc1ccccc1` (centres undefined) it is “inactive”.
The figure for `CC(C)c1ccc(OP(C)(=O)Nc2ccc(SC(F)(F)F)cc2)cc1` (centres undefined) is inactive: -0.342%; for `O=[N+]([O-])c1cc([N+](=O)[O-])c(Nc2ccc(Cl)cc2)c([N+](=O)[O-])c1` it is inactive: -5%.
